The values that follow come from US5795977A, “Water soluble adenosine kinase inhibitors” (Metabasis Therapeutics, Inc., priority 1996, dated 1998).

For the experiment, the target named is partially purified pig heart adenosine kinase or recombinant human adenosine kinase. Put plainly: AK inhibition. The format is biochemical. The note with it: 0.5 μM [U-14C] adenosine, pH 7.0, 37° C., 20 minutes. On the procedure: Adenosine kinase activity was measured essentially as described by Yamada et al. Biochim. Biophys. Acta 660, 36-43 (1988) with a few minor modifications. Assay mixtures contained 50 mM TRIS-maleate buffer, pH 7.0, 0.1% BSA, 1 mM ATP 1 mM MgCl2, 0.5 μM [U-^14 C] adenosine (400-600 mCi/mmol) and varying duplicate concentrations of inhibitor. […] The amount of ^14 C-AMP was quantified by scintillation counting.

Usually IC50 stands for the point on the concentration scale where inhibition reaches its midpoint.

For `C[C@H]1O[C@@H](n2cc(I)c3c(NCc4ccncc4)ncnc32)[C@H](O)[C@@H]1O` [Compound 42, 4-N-(4-pyridylmethylamino)-5-iodo-7-(5-deoxy-1-β-D-ribofuranosyl)pyrrolo[2,34]pyrimidine], the IC50 was found to be 75 nM.
